Laboratory results as given in patent publication US10155768B2, “Fused pyrimidine compound or salt thereof” (TAIHO PHARMACEUTICAL CO., LTD., priority 2016, dated 2018).

Conditions: mouse, microsomes, 0.5 h

Structure (SMILES) | Remaining (%)
COCCOc1c(C(=O)Nc2ccc(COC)cc2)c2c(N)ncnc2n1C1(C)CC1 | 68
COCc1ccc(NC(=O)c2c(C#N)n(C3(C)CC3)c3ncnc(N)c23)cc1 | 76
